# Measurements published in ChEMBL document CHEMBL5727521, “Compounds as indoleamine 2,3-dioxygenase inhibitors” (2020).
# Protein sequences, listed by entry. Tags and fused reporters are not part of them.
# UniProt P14902, whole entry, looked up: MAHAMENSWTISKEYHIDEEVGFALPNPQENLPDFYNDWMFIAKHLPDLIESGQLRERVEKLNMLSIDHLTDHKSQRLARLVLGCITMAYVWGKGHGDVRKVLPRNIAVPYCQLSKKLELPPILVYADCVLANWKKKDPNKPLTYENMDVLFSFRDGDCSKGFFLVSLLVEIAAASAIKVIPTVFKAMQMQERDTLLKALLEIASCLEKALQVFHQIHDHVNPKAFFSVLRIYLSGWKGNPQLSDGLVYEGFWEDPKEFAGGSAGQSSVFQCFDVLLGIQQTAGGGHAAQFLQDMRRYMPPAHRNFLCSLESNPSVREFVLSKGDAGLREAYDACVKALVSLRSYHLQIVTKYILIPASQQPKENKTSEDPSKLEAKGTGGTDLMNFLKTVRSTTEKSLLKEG
# Molecular target: Indoleamine 2,3-dioxygenase 1 (Homo sapiens, UniProt P14902)
smiles,measurement,value
CCOC(=O)CNP(=O)(CC)NCCSc1nonc1/C(=N/O)Nc1ccc(F)c(Br)c1 (stereo unspecified),IC50,2680 nM
